Test results from patent US20250326765A1, “PDE4B INHIBITOR AND USE THEREOF” (XIZANG HAISCO PHARMACEUTICAL CO., LTD., priority 2022, published 2025).

Amino acid sequences for entries named in this document (tags omitted). Residues count along the entry.
UniProt Q08499, 303-809 limits assumed: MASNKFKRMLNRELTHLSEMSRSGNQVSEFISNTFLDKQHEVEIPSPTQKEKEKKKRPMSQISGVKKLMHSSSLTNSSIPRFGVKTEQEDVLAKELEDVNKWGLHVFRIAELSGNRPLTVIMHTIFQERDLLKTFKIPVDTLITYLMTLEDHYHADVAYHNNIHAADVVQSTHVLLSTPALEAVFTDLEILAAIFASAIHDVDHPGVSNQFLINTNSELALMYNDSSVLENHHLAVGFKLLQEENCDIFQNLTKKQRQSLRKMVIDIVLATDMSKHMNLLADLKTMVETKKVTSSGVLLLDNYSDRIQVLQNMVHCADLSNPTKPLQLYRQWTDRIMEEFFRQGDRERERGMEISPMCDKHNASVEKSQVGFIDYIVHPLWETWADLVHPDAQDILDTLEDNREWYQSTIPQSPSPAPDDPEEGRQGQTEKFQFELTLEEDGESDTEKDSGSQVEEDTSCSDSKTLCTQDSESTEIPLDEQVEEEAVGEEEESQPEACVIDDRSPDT
UniProt Q07343, whole entry: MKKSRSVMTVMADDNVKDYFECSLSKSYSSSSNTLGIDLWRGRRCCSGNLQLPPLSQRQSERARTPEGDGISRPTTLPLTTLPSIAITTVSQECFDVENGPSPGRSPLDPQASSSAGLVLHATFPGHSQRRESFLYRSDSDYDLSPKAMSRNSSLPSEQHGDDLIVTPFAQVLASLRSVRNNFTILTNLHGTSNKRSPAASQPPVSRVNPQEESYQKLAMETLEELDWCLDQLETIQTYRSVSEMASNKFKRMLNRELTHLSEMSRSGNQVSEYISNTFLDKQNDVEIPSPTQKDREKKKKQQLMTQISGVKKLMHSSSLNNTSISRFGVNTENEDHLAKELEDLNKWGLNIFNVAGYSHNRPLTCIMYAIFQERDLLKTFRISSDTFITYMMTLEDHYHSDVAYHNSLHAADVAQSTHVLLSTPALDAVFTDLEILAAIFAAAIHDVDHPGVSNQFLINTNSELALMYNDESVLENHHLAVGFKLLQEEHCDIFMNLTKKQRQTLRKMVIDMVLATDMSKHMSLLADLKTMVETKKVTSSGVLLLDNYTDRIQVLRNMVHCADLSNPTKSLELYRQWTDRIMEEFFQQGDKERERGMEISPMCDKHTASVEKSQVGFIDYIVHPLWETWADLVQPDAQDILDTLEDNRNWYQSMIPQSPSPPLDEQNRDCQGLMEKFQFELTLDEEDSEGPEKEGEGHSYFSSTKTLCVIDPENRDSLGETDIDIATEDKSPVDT
UniProt Q07343, 1-564 isoform 2: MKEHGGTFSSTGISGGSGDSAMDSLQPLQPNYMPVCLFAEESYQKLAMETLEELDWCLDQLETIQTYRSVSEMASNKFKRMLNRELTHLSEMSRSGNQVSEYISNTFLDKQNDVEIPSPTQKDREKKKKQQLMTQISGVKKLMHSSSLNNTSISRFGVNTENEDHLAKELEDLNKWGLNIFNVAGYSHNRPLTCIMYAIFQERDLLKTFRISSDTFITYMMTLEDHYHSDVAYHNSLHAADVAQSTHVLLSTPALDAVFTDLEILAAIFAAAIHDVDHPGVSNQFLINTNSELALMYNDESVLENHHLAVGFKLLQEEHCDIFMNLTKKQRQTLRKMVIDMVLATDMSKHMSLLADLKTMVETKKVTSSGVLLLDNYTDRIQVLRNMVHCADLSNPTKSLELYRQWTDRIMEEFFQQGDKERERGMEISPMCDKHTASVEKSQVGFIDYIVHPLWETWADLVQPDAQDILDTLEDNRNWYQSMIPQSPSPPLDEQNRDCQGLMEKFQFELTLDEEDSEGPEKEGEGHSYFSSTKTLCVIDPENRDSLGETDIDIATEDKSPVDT
UniProt Q12809, whole entry: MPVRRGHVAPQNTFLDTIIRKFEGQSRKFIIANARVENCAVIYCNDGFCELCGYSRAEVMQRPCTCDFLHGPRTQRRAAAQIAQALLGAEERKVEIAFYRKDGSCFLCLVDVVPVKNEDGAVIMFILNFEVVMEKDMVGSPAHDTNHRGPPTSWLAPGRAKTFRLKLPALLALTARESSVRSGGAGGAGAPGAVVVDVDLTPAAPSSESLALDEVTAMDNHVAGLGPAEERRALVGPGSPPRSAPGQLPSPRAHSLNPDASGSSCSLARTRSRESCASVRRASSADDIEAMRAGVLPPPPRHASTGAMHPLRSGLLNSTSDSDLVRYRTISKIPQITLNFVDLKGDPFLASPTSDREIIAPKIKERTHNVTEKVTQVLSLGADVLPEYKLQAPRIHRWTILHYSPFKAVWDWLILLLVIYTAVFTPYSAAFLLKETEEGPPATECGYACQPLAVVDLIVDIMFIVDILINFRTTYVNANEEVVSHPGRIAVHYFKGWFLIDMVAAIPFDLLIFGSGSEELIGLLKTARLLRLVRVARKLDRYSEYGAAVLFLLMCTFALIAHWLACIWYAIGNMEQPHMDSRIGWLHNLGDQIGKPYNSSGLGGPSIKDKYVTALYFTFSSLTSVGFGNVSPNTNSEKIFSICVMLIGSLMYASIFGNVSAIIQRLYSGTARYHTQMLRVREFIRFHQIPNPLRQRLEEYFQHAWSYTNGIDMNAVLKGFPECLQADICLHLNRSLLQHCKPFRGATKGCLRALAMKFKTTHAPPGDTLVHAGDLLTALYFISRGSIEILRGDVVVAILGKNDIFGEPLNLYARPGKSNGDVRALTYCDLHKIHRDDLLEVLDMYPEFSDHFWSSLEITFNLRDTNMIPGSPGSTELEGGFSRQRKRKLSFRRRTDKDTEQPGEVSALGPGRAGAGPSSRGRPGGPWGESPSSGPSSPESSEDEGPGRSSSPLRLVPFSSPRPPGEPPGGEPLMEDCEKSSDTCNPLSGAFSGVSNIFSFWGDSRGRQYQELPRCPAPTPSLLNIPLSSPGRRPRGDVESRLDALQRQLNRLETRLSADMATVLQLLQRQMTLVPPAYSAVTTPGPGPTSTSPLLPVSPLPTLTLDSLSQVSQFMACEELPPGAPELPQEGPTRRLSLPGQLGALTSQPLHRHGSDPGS

Tests used:
[1] = test system: release of tumor necrosis factor-α (TNF-α) from human peripheral blood mononuclear cells induced by lipopolysaccharide (LPS); test: Inhibition of LPS-induced TNF-α release from human peripheral blood mononuclear cells in vitro; conditions: hPBMC, 100 ng/mL LPS, 4 h
Experimental: Normal human peripheral blood which was anticoagulated (citric acid anticoagulation) was collected, and hPBMCs were prepared by Ficoll-Paque PLUS (Cytiva, Cat #17144002, density 1.077 g/mL). The concentration of hPBMC cells was adjusted to 0.25×10^6 cells/mL with RPMI1640 medium and inoculated into a 96-well plate in an amount of 50000 cells per well. Subsequently, different concentrations of drugs were added for pre-incubation for 1 h (the DMSO final concentration was 0.1%, and the positive and negative control wells had the same volume of RPMI1640 containing 0.1% DMSO). After the pre-incubation was complete, 100 ng/mL LPS (SIGMA, L2630) was added to the compound and positive control wells, and the negative control well had the same volume of RPMI1640 containing 0.1% DMSO. Incubation was carried out for 4 h in an incubator at 37° C. and 5% CO2. The cell supernatant was collected, and the content of TNF-α in the supernatant sample was detected by human TNF-α Elisa quantitative test kit (Sino Biological, Cat #KIT10602). The IC50 value was calculated using GraphPad Prism software.

PDE4D2 = PDE4D2 (Homo sapiens, UniProt Q08499); test: Effect of compounds on PDE4D2 activity (fluorescence polarization kit); conditions: read-out: PDE4D2 IC50; class symbols
Experimental: The effect of compounds on PDE4D2 activity was detected by a fluorescence polarization kit (BPS Bioscience, Catalog #60345). During the reaction, 12.5 μL of 0.272 ng/well of an enzyme (final concentration: 0.068 ng/well) and 12.5 μL of the compound diluted in a gradient manner (DMSO concentration: 4%) were first pre-incubated at room temperature for 15 minutes, the same volume of the enzyme at the same concentration and 12.5 μL of PDE buffer containing 4% DMSO were added to the positive control well, and 25 μL of PDE buffer containing 2% DMSO was added to the negative control well. After completion, 25 μL of […] FAM-Cyclic-3′,5′-AMP (final concentration: […]) was added to each well, fully mixed, and then incubated at room temperature with slow shaking for 30 minutes. The Binding Agent was diluted with the Binding Agent Diluent (cAMP) at a ratio of 1:100 for later use, 100 μl/well of the Binding Agent dilution was taken and added to all wells of the test plate and incubated at room temperature with slow shaking for 1 hour.
After the incubation was complete, BMG LRBTECH microplate reader was used for FP detection, with Excitation at 485 nm and Emission at 520 nm. FP was usually represented by mP value.
[formula] • I∥ (S520): fluorescence intensity in parallel direction • I⊥ (P520): fluorescence intensity in perpendicular direction • G: G factor=1
(§1) [formula] • mP(sample): mP of the test compound in a reaction well • mP(negative control): mP in the negative control well • mP(positive control): mP in the positive control well
(§2) According to the calculated inhibition rate at each concentration, the IC50 value of each compound was calculated by GraphPad Prism 8 software.

[2] = Pharmacokinetic test in mice
Experimental: 5.1 Experimental animals: Male ICR mice, 20-25 g, 6 mice/compound. Purchased from Chengdu Ddossy Experimental Animals Co., Ltd.
5.2 Experimental design: On the day of the experiment, 42 ICR mice were randomly grouped according to their body weights. The animals were fasted with water available for 12-14 h one day before administration and fed 4 h after administration.
Before and after administration, 0.06 mL of blood was taken from the orbit under isoflurane anesthesia and placed in an EDTAK2 centrifuge tube for centrifugation at 5000 rpm at 4-C for 10 min, followed by plasma collection. The blood collection time points for the intravenous group and intragastric group were both 0 m, 5 mi, 15 mi, 30 mi, 1 h, 2 h, 4 h, 6 h, 8 h, and 24 h. Before analysis and detection, all the samples were stored at −80° C., and the samples were subjected to quantitative analysis using LC-MS/MS.

PDE4B2 = PDE4B2 (Homo sapiens, UniProt Q07343); test: Effect of compounds on PDE4B2 activity (fluorescence polarization kit); conditions: read-out: PDE4B2 IC50; class symbols
Experimental: The effect of compounds on PDE4B2 activity was detected by a fluorescence polarization kit (BPS Bioscience, Catalog #60343). According to the instructions of the kit, FAM-Cyclic-3′,5′-AMP at a final concentration of […], 1 ng/well of PDE4B2 (PDE buffer was added to the negative control well), and a compound diluted in a gradient manner (PDE buffer containing 10% DMSO was added to the positive control well) were added to each well, fully mixed, and then reacted at room temperature for 1 h. The Binding Agent was diluted with the Binding Agent Diluent (cAMP) at a ratio of 1:100 for later use, the Binding Agent dilution was taken and added to the test plate at 50 μl/well and incubated at room temperature with slow shaking for 20 minutes. After the incubation was complete, Envision was used for FP detection, with Excitation at 480 nm and Emission at 535 nm. FP was usually represented by mP value.
[formula] • I∥ (S535): fluorescence intensity in parallel direction • I⊥ (P535): fluorescence intensity in perpendicular direction • G: G factor=1
as §1, §2

[3] = biological target: hERG potassium ion channel (Homo sapiens, UniProt Q12809); test: Test for hERG potassium ion channel (manual patch-clamp, CHO cells); conditions: read-out: IC50, inhibition of hERG potassium channel current; CHO cells stably expressing hERG, whole cell patch-clamp
From the text: Experimental Platform: Electrophysiological Manual Patch-Clamp System
Cell line: Chinese hamster ovary (CHO) cell line stably expressing hERG potassium ion channel
Experimental method: CHO (Chinese Hamster Ovary) cells stably expressing hERG potassium channel were subjected to a whole cell patch-clamp technique to record the hERG potassium channel current at room temperature. The glass microelectrode was made of a glass electrode blank (BF150-86-10, Sutter) by a puller. The tip resistance after filling the liquid in the electrode was about 2-5 MQ. The glass microelectrode can be connected to the patch-clamp amplifier by inserting the glass microelectrode into an amplifier probe. The clamping voltage and data recording were controlled and recorded by the pClamp 10 software through a computer. The sampling frequency was 10 kHz, and the filtering frequency was 2 kHz. […]
Data processing: Data analysis processing was carried out by using pClamp 10, GraphPad Prism 5, and Excel software. The degree of inhibition on the hERG potassium current (peak value of hERG tail current induced at −50 mV) at different compound concentrations was calculated by the following formula: […]
Compound IC50 was calculated using GraphPad Prism 5 software by fitting according to the following equation: […]

PDE4B1 = PDE4B1 (Homo sapiens, UniProt Q07343); test: Effect of compounds on PDE4B1 activity (IMAP fluorescence polarization kit); conditions: read-out: PDE4B1 IC50; class symbols

Structure (SMILES)	Max inhibition (%) [1] [%]	IC50 ([1]; read-out: Re IC50 (nM) (relative IC50), TNF-α induced by LPS, class symbols)	IC50 (PDE4D2) [nM]	F ([2]; i.g. (10 mg/kg)) [%]	AUC0-t ([2]; plasma, i.g. (10 mg/kg)) [ng·h/mL]	T1/2 ([2]; plasma, i.g. (10 mg/kg)) [h]	AUC0-t ([2]; plasma, i.v. (5 mg/kg)) [ng·h/mL]	CL ([2]; plasma, i.v. (5 mg/kg)) [mL/min/kg]	T1/2 ([2]; plasma, i.v. (5 mg/kg)) [h]	Vdss ([2]; plasma, i.v. (5 mg/kg)) [L/kg]	IC50 (PDE4B2) [nM]	IC50 [3] [nM]	IC50 (PDE4B1) [nM]
CC#Cc1cnc2c(c1)OCC1CN(c3nc4c(c(NC5(CO)CCC5)n3)[S@+]([O-])CC4)CCN21 (single isomer, unassigned) [Compound 80-1]	70.26	< 10	10 to 50	≥98	35989 ± 3265	2.67 ± 0.62	6156 ± 249	6.34 ± 0.27	1.78 ± 0.17	0.968 ± 0.076	< 10	18700	–
[O-][S@+]1CCc2nc(N3CC4C=C(c5ccc(Cl)cc5)CC4C3)nc(NC3(CO)CCC3)c21 (single isomer, unassigned)	–	–	< 10	–	–	–	–	–	–	–	–	> 20000	< 10
